The target of this experiment is T1, His Trx-SGTA fusion protein (wild type) (human, UniProt O43765 1-313).
T1 construct: SGTA, human; also called His-tagged Trx-SGTA; source: expressed and purified as previously described (Leznicki et al., 2011)
Description: pull-down; about 5 µg purified recombinant protein (released from GST by thrombin, or His Trx fusion) incubated with equivalent amounts of purified GST-tagged proteins on Glutathione Sepharose beads, 4 h at 4°C, 20 mM Tris-HCl pH 8.4, 150 mM NaCl, 2.5 mM CaCl2, 10% glycerol, 1% Triton X-100, 1 mM DTT; western blot. The settings on record: both partners purified. For orientation: In western blotting, separated proteins are transferred to a membrane and probed.

Data on 1 molecule can be found in article PMC4582187 (Journal of Cell Science, 2015).

B1: GST-tagged mouse Rpn13 C-terminal region (Rpn13 150-407) (domain or fragment, UniProt Q9JKV1 150-407, looked up)
chain: LGGEGGLQSLLGNMSHSQLMQLIGPAGLGGLGGLGALTGPGLASLLGSSGPPASSSSSSSRSQSAAVTPSSSTSSARATPAPSAPAAASATSPSPAPSSGNGTSTAASPTQPIQLSDLQSILATMNVPAGPGGSQQVDLASVLTPEIMAPILANADVQERLLPYLPSGESLPQTADEIQNTLTSPQFQQALGMFSAALASGQLGPLMCQFGLPAEAVEAANKGDVEAFAKAMQNNAKSDPKEGDTKDKKDEEEDMSLD
notes: also called Rpn13 C-terminal domain; source: E. coli BL21 (pGEX-4T1), purified on Glutathione Sepharose 4B, kept on the resin
With B1, the binding result is “binds”.
